The text below walks through data of ChEMBL document CHEMBL1154388.

Sequences of proteins named here, by UniProt entry; tags and fusion partners are left off.
UniProt P31424, whole entry, looked up: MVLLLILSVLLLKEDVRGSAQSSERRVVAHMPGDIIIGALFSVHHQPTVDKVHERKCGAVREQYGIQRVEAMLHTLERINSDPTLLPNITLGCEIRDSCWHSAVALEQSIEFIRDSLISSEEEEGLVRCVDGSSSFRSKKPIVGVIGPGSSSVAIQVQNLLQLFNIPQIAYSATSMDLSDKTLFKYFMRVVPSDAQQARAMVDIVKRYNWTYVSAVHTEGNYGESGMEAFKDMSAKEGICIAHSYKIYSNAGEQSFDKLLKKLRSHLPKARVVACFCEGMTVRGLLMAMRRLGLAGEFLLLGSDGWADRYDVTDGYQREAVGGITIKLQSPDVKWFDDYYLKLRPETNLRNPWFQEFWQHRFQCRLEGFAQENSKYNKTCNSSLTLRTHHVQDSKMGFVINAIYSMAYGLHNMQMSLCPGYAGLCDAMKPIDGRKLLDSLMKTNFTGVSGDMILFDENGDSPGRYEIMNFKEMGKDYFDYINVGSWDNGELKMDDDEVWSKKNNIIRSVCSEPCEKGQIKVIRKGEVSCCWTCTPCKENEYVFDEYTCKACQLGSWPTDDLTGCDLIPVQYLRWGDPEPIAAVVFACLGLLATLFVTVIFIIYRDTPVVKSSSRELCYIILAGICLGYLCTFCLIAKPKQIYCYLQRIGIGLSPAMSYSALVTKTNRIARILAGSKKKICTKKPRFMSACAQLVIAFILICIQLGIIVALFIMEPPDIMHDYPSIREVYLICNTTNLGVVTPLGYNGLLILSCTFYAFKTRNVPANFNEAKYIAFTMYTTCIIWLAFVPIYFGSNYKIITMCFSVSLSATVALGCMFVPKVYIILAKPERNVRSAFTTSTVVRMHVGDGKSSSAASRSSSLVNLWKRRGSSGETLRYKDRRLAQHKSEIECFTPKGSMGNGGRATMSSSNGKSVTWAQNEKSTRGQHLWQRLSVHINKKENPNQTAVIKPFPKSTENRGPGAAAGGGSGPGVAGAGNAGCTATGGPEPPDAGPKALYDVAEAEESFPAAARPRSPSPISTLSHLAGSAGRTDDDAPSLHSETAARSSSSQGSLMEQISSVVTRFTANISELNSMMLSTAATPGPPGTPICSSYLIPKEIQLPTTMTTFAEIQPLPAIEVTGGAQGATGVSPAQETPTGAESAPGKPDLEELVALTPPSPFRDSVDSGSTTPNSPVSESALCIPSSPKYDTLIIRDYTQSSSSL

Each structure is given as a SMILES string.

For this assay, the target named is Metabotropic glutamate receptor 5 (Rattus norvegicus) (UniProt P31424). The experiment in a line: Positive allosteric modulator activity at rat mGluR5 receptor expressed in HEK293 cells assessed as potentiation of glutamate-induced response at 30 uM relative to glutamate. In kind it is cell-based. An outline of the steps: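 In mGluR5-expressing HEK293A cells in the calcium mobilization assay, response amplitude with test compound present is expressed as a percentage of the maximal response to glutamate. Values are the average of n≥3.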

`Fc1ccc2ncnc(Nc3ccc(F)c(Cl)c3)c2c1`: the Activity stood at 34%.
